Values of other authors as cited in patent US8686137B2, “Heterocyclic compounds and their uses” (Amgen Inc., priority 2010, dated 2014).

Protein sequences, listed by entry. Tags and fused reporters are not part of them. Lines headed by an entry give the natural chain unless they say otherwise; changes in a name come on top.
UniProt P42338: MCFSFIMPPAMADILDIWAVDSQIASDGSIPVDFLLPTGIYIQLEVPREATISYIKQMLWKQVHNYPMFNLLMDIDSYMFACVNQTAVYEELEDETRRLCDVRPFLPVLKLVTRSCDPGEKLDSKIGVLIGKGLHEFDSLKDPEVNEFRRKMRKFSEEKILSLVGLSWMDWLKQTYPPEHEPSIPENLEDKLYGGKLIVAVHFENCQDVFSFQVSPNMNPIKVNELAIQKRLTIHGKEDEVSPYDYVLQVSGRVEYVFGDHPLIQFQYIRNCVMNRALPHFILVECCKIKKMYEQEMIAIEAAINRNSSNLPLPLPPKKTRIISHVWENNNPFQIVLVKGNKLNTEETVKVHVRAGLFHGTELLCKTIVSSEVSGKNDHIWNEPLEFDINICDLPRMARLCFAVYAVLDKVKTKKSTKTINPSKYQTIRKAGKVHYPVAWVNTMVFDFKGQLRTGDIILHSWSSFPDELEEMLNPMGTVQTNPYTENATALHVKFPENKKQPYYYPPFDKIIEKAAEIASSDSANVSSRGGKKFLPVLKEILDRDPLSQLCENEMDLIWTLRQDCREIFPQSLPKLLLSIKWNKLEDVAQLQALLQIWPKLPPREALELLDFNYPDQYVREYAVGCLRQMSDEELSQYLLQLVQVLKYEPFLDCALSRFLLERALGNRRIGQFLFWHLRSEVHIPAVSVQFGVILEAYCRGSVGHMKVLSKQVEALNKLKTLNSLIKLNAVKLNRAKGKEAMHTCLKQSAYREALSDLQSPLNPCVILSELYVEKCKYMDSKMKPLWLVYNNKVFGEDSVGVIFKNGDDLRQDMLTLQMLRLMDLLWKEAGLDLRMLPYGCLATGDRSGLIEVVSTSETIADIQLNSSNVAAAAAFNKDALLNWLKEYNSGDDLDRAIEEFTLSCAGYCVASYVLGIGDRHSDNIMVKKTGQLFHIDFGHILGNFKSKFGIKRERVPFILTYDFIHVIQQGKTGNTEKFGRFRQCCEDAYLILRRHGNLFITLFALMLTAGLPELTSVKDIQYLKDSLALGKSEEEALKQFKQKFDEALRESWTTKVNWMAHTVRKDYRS

Target: p110β (Homo sapiens, UniProt P42338)
Conditions: read-out: potency on beta

- IC50: 7 nM
SMILES: Cc1cc(C(C)Nc2ccccc2)c2nc(N3CCOCC3)cc(=O)n2c1 (stereo not shown) [TGX-221]
